System: carcinoma in situ (CIS) bladder cancer
Conditions: Patient 2, after imiquimod treatment; imiquimod 0.4%, 50 mL intravesical, once weekly for 6 weeks

CC(C)Cn1cnc2c(N)nc3ccccc3c21 [imiquimod, 1-Isobutyl-1H-imidazo[4,5-c]quinolin-4-amine]
Ratio of malignant to non-malignant cells: seems to be improved

Reference: patent US20160331743A1, “PHARMACEUTICAL COMPOSITIONS COMPRISING IMIQUIMOD FOR USE IN THE TREATMENT OF CARCINOMA IN SITU OF THE BLADDER” (UROGEN PHARMA LTD, priority 2014, published 2016)
